Experimental data taken from PMC3303611 (Journal of Medicinal Chemistry, 2012).

Tested on: brain H3 receptors
Experiment: PET imaging of [18F]9 in monkey
Conditions: rhesus monkey, in vivo

C[C@@H]1CCCN1CCc1cc2cc(C(=O)c3ccc(F)cc3)ccc2o1 [Compound 9, (R)-(2-(2-(2-methylpyrrolidin-1-yl)ethyl)benzofuran-5-yl)(4-fluorophenyl)methanone]
Mean Vt decrease: -58% and -52% and -54% and -53% and -49%
reduction of VT: 49—58%

“And” between values parts separate entries of the source, which are not always exact repeats. Equal values may be shown once.
